Reference: US7368576B2, “Dipeptidyl peptidase IV inhibitors and their uses as anti-cancer agents” (Probiodrug AG, priority 2001, dated 2008)

Protein sequences, listed by entry. Tags and fused reporters are not part of them. Residues count along the entry.
UniProt P14740, 37-767 limits assumed: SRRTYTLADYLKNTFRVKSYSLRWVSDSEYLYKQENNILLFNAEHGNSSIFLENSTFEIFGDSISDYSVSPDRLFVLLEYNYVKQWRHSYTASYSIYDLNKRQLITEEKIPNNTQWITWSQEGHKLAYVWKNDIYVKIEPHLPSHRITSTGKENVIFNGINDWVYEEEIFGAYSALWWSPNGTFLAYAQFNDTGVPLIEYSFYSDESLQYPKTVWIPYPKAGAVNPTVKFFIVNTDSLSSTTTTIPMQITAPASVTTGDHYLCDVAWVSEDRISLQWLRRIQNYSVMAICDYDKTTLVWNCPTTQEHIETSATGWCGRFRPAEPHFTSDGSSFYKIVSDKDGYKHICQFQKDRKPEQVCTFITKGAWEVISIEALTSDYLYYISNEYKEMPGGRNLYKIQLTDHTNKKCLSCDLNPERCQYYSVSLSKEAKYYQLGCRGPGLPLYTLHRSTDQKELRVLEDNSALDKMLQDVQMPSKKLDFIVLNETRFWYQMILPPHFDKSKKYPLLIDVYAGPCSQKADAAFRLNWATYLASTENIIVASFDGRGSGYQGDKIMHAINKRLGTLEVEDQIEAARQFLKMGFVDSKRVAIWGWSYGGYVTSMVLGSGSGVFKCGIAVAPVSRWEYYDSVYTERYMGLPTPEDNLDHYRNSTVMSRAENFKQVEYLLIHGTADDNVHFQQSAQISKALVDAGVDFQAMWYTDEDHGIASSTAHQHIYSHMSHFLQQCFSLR

Target: T1, plasma DPIV activity (Rattus norvegicus, UniProt P14740)
T1 construct: determination of plasma DPIV activity consisted of 80 μl reagent and 20 μl plasma sample; from tissue; host or cells: plasma of Wistar rats after i.v. or p.o. dosing
Assay: DPIV inhibiting activity after intravasal and oral administration to Wistar rats
Type: in vivo
Conditions: 100 mg/kg, oral

Row | In vivo DPIV-inhibition at tmax, p.o. (%) | SMILES
1 | no inhibition | CC[C@H](C)[C@H](N)C(=O)N1CCC[C@H]1C(=O)N[C@H](C(=O)O)[C@@H](C)CC [Diprotin A, Ile-Pro-Ile, reference compound]
2 | no inhibition | CC(C)C[C@H](NC(=O)[C@@H]1CCCN1C(=O)[C@@H](N)C(C)C)C(=O)O [Diprotin B, Val-Pro-Leu, reference compound]
